Values quoted from earlier work as cited in patent publication US5480969A, “Antagonists of LHRH” (The Administrators of the Tulane Educational Fund, priority 1992, dated 1996).

How the values were obtained:
[1] = tested on: rats; details: Table V; cited from earlier work
[2] = tested on: rat mast cells; details: Table V; cited from earlier work

For “[N-Ac-D-2-Nal^1, D-pClPhe^2 D-3-Pal^3, D-Cit^6, D-Ala^10 ] LHRH [SB-75]”, the “column 1.5 (AOA, head not given)” value [1] is given as 75 and the “Histamine release ED50” value [2] is given as 1.5 µg/mL.
